In patent US20150072968A1, “Treating Infections with Ceftolozane/Tazobactam in Subjects Having Impaired Renal Function” (Calixa Therapeutics, Inc., priority 2013, published 2015):

Tested on: Escherichia coli
Experiment: Phase 3 cUTI study, per pathogen microbiological eradication
Assay type: in vivo
Conditions: ME population
Excerpt: The primary efficacy endpoint was the composite microbiological and clinical cure response at the test-of-cure (TOC) visit in the microbiologically modified intent-to-treat (mMITT) population, which included all patients who received study medication and had at least 1 baseline uropathogen. The key secondary efficacy endpoint was the composite microbiological and clinical cure response at the TOC visit in the microbiologically evaluable (ME) population, which included protocol-adherent mMITT patients with a urine culture at the TOC visit.

Question: Which results are given for `C[C@H]1COc2c(N3CCN(C)CC3)c(F)cc3c(=O)c(C(=O)O)cn1c23` [Levofloxacin]?
Answer: Per pathogen microbiological eradication rate at TOC visit (Escherichia coli (CTX-M-14/15 ESBL producing)): 13/25 (52.0) %; Per pathogen microbiological eradication rate at TOC visit (Escherichia coli (ESBL-producing)): 18/36 (50) %
